# Reported logP (octanol/water) values for industrial, environmental and drug-like chemicals

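These are experimental values that the OPERA curators gathered from public databases to train and test their QSAR models. The files give a single number for a compound and property, which may rest on several reports. Method, purity and exact conditions of the single measurements are not given. Where a salt, mixture or single isomer is drawn, the source does not say that exactly this form was tested. Some upstream entries may be estimates or bounds without being marked so.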

logP is the log10 of the octanol-water partition coefficient; higher is more lipophilic. The databases behind each value are named after "via".

compound,logP,via
CC(=O)OCCOC(C)=O,0.24,eChemPortal
C/C=C/C(=O)C1=C(C)CCCC1(C)C,3.68,eChemPortal
Cc1cccc(C)c1OS(=O)(=O)c1ccc(O)cc1,3,eChemPortal
OC[C@H](O)[C@@H]1OC(c2ccc(Cl)cc2)O[C@@H]2COC(c3ccc(Cl)cc3)O[C@H]12 (some centres undefined),3.68,eChemPortal
CCC(C)(O)CCC=C(C)C (stereo unspecified),2.9,eChemPortal
C/C=C/C(=O)C1CCC(C)(C)C=C1C (stereo partly drawn),3.59,eChemPortal
CC(C)OC(=O)C(C(=O)OC(C)C)=C1SCCS1=O (stereo unspecified),1.6,OCHEM
CS(=O)(=O)OCC1COC(Cn2cncn2)(c2ccc(Cl)cc2Cl)O1.Cl (stereo unspecified),1.7,eChemPortal
CCCCCCCCCCCC[n+]1ccccc1.[Cl-],0.271,eChemPortal
O=C1CCCCCCCCCCCCCCO1,5.79,eChemPortal
O=C(Nc1ccc(S(=O)(=O)[O-])c2cc(S(=O)(=O)[O-])c(/N=N/c3ccc4c(CNc5nc(F)nc(F)c5Cl)cccc4c3S(=O)(=O)[O-])c(O)c12)c1ccccc1.[Li+].[Na+].[Na+],-0.2,eChemPortal
O=C([O-])C1=NN(c2ccc(S(=O)(=O)[O-])cc2)C(=O)\C1=C/C=C/C=C/c1c(C(=O)O)nn(-c2ccc(S(=O)(=O)O)cc2)c1O.[K+].[K+],-3.1,eChemPortal
O=C(O)CCCCCCC(=O)O,0.59,eChemPortal
CCC(CC)CO[Si](OCC(CC)CC)(OCC(CC)CC)OCC(CC)CC,6.21,eChemPortal
Nc1ccc([N+](=O)[O-])cc1S(=O)(=O)[O-].[Na+],0.58,eChemPortal
CSc1nc2c(N)ncnc2n1[C@@H]1OC2OP(=O)(O)OCC2[C@H]1O (stereo partly drawn),-2.03,OCHEM
CCCCCCCC(=O)OCC(C)(C)COC(=O)CCCCCCC,7.66,eChemPortal
COS(=O)(=O)[O-].C[N+](C)(C)c1ccc2ccc(O)cc2c1,0.018,eChemPortal
O=C(O)CC[C@@H](C(=O)O)N1C(=O)c2ccccc2C1=O,0.45,eChemPortal
CC1=NC(=CN=O)SN1,1.29,OCHEM
O=C([O-])c1cc2ccccc2c(/N=N/c2ccc3ccccc3c2S(=O)(=O)[O-])c1O.[Ca+2],1.8,eChemPortal
CC[C@@H]1C=C(C)C[C@H](C)C[C@H](OC)[C@H]2O[C@@](O)(C(=O)C(=O)N3CCCC[C@H]3C(=O)O[C@H](/C(C)=C/[C@@H]3CC[C@@H](Cl)[C@H](OC)C3)[C@H](C)[C@@H](O)CC1=O)[C@H](C)C[C@@H]2OC,4.4,PubChem
O=C(CO)c1ccccc1,1.92,OCHEM
CCCCCCCCCCOC(=O)c1ccccc1C(=O)OCCCCCC,8.1,OCHEM
Oc1cn2c(n1)Nc1ccc(Cl)c(Cl)c1C2,2.4,PubChem
C=CC(=O)OCC(O)COc1ccccc1 (stereo unspecified),2.03,eChemPortal
CC(=O)CCCCCl,1.43,eChemPortal
C=COCCCN,0.16,eChemPortal
CCCCCCCCCCCCCCCCCCNC(=O)CCCCCCCCCCCCCCCCC,6.1,eChemPortal
C[C@]12CCC(=O)C=C1CC[C@@H]1[C@@H]2[C@@H](O)C[C@@]2(C)[C@H]1CC[C@]2(O)C(=O)COC(=O)CCC(=O)O,2.11,OCHEM
CCN(CC[N+](C)(C)C)c1ccc(/N=N/c2nc(-c3ccccc3)ns2)c(C)c1.COS(=O)(=O)[O-],-1,eChemPortal
CCCCCCCCCCCOC1O[C@@H](CO)[C@H](O)[C@@H](O)[C@@H]1O (stereo partly drawn),2.27,eChemPortal
COc1cc(/N=N/c2ccc(S(=O)(=O)[O-])cc2)c(C)cc1/N=N/c1c(S(=O)(=O)[O-])cc2cc(Nc3ccccc3)ccc2c1O.[Na+].[Na+],-2.165,eChemPortal
CCN(Cc1ccccc1)c1ccccc1,4.382,"PubChem, eChemPortal"
O=C1c2ccccc2-c2ccc3c4c(ccc1c24)-c1c(Br)ccc(Br)c1C3=O,1.9,eChemPortal
COc1cc(NC(=O)C(N=Nc2ccc(-c3ccc(N=NC(C(C)=O)C(=O)Nc4cc(OC)c(Cl)cc4OC)c(Cl)c3)cc2Cl)C(C)=O)c(OC)cc1Cl (stereo unspecified),0.51,eChemPortal
Cc1ccccc1N=C(O)NN,0.36,OCHEM
CCOC(=O)ON=C(C)C(=O)c1ccccc1,2.84,eChemPortal
CCCCC(CC)COC(=O)c1ccccc1 (stereo unspecified),6.21,eChemPortal
O=C(OCCOC(=O)c1ccccc1)c1ccccc1,3.75,eChemPortal
Cc1cc(O)c(Cl)c(C)c1Cl,2.8,eChemPortal
C=C(Br)C(F)(F)F,2.7,eChemPortal
COC(=O)C(C)(C)N=NC(C)(C)C(=O)OC,2.47,eChemPortal
O=C(O)CCCCO/N=C(/c1cccnc1)c1cccc(C(F)(F)F)c1,4.3,PubChem
CCN(CCC#N)c1ccc(N=Nc2ccc([N+](=O)[O-])cc2Cl)cc1,1.442,eChemPortal
CCOc1cc2c(cc1NC(=O)c1ccccc1)Oc1c(NC(C)=O)c3c(c(NC(C)=O)c1=N2)Oc1cc(NC(=O)c2ccccc2)c(OCC)cc1N=3,0.57,eChemPortal

From the experimental data distributed with OPERA 2.9.